Test results reported in PMC5645467.

Target: GST-RCC1 (full-length human RCC1, wild type) (human) (UniProt P18754)
Assay: pull-down; GST-RCC1 constructs (~0.75 µM) pre-incubated with His-tagged ΔIBB-importin α1 or α3 (~1 µM), glutathione beads, eluted with reduced glutathione; SDS-PAGE, quantified, ΔIBB-importin α3 pulled down by GST-RCC1 = 100%

- percent pulled down (importin α3 pulled down by GST-RCC1 = 100%): < 12%
Substance: His-tagged ΔIBB-importin α1 (from UniProt P52293 70-529) (domain or fragment; other documents disagree on this pair)
